Only a part is listed here, and it is no random draw. Active and inactive are the calls of the source. The call rests on the fitted dose curve; in most records, active means well fitted cell-killing curve with a large enough effect; inactive means no such curve, though single readings can be large or run the other way. A call without a number means that no potency is given here.
Assay: qHTS for Inhibitors of TGF-b: Cytotox Counterscreen
Conditions: HepG2 CAGA-GFP viability, ATP luminescence, 18 h; series mostly up to 46.1 µM
Text: TGF-b is a main component in the TGF-b signaling pathway which plays diverse roles in cellular and development pathways. TGF-b is mediated by transcription factors called "Smads". Although the Smad-dependent pathway is the primary canonical TGF-b signaling mode, TGF-b1 can also activate alternative signaling pathways, including those involving MAPK (ERK, JNK and p38). This interaction may mediate or enhance Smad-dependent responses, or can exert Smad-independent effects. The complexity of this signaling cascade allows the TGF-b superfamily to perform unique, overlapping or redundant functions. We believe that targeting the TGF-beta pathway at the Smad-transcription factor level may eliminate the consequences of disrupting the entire pathway and offer specificity without affecting other signaling pathways. Smad3 is the primary transducer of TGF-b's signals and Smad3 regulates many functions attributed to TGF-b signaling. We hypothesize that Smad3 inhibitors will selectively eliminate Smad3-specific TGF-beta signals without undesired off-target effects. We aim to identify Smad3-small molecule antagonists using a quantitative high throughput screening (qHTS) approach.
A high-throughput assay was developed to screen the NIH Molecular Libraries Small Molecule Repository (MLSMR). This is a cell based assay, where TGF-b is tagged with GFP. This is a counterscreen that evaluates the cytotoxicity of the compounds that were screened in the primary cell-based screen (AID 588855).
MH087449NIH Chemical Genomics Center [NCGC]
NIH Molecular Libraries Probe Centers Network [MLPCN]
Assay Submitter (PI): Sushil Rane, National Institute of […]
Suspensions of trypsinized HEPG2 CAGA-GFP cells were dispensed into white, tissue culture-treated, solid 1536-well plates at 5uL/well (1000 cells/well final concentration) in DMEM medium supplemented with 1% FBS. Plates were incubated at 37 degrees C for 2 hours, after which 23 nL of compounds or DMSO were delivered to each well using a pin tool. One uL of recombinant TGF-beta in DMEM (1% FBS) was then dispensed (500 pg/mL final concentration), and plates were incubated at 37 degrees C for 18 hours. Two uL of CellTiter Glo (Promega), a luminescence-based viability reagent, was dispensed, followed by a 10 minute room temperature incubation. The plates were then measured on a PerkinElmer ViewLux plate reader for luminescence (clear filter) using a 5 second exposure. The %Activity was determined from the corrected luminescence values. Wells containing media only (no cells) were used to normalize %Activity of identified toxic compounds; media-only wells corresponded to 100%Activity (complete cell-killing), while DMSO-dosed cell controls were used to normalize 0%Activity (no toxicity).
Concentration-response curves were fitted to the signals arising from the resulting luminescence. The concentration-effect curves were then classified based on curve quality (r2), response magnitude and degree of measured activity, and compounds were subsequently categorized based on their curve class.
Potency means the concentration at half of the fitted maximal effect.

| SMILES | Potency |
| --- | --- |
| CP(=O)(OCCOc1ccccc1)OCCOc1ccccc1 | inactive |
| CP(=O)(Nc1ccc(Cl)cc1Cl)Oc1ccccc1 (configuration not stated) | inactive |
| CCCCCCCCCCCCCCCC1C[N+](C)(C)CCOP(C)(=O)O1 (configuration not stated) | inactive |
| Cc1cc(C)cc(OP(C)(=O)Nc2cccc(C(F)(F)F)c2)c1 (configuration not stated) | inactive |
| COc1ccc(OP(C)(=O)Nc2ccccc2Br)cc1 (configuration not stated) | inactive |
| COc1ccccc1OP(C)(=O)Nc1ccc(C)c(C)c1 (configuration not stated) | inactive |
| O=[N+]([O-])c1cc([N+](=O)[O-])c(Nc2ccccn2)c([N+](=O)[O-])c1 | active: 10 µM |
| Cc1c(NP(C)(=O)Oc2ccc(C(C)C)cc2)c(=O)n(-c2ccccc2)n1C (configuration not stated) | inactive |
| CCc1ccc(OP(C)(=O)O)cc1 | inactive |
| CP(=O)(Nc1ccccn1)Oc1ccccc1 (configuration not stated) | inactive |
| COc1ccccc1OP(C)(=O)Nc1ccc(C)cc1C (configuration not stated) | inactive |
| COc1ccccc1OP(C)(=O)Nc1ccc(Br)cc1 (configuration not stated) | inactive |
| CN(C)CCOC(=O)C(O)(c1ccccc1)C1CCCC1 (configuration not stated) | inactive |
| COc1ccc(OP(C)(=O)Nc2ccccn2)cc1 (configuration not stated) | inactive |
| CP(=O)(Nc1ccc(Cl)cc1)Oc1ccc(F)cc1 (configuration not stated) | inactive |
| CC(C)(C)c1ccc(OP(C)(=O)O)cc1 | inactive |
| COc1ccccc1OP(C)(=O)Nc1ccccc1Br (configuration not stated) | inactive |
| CN(C)C(=O)c1c([N+](=O)[O-])cc([N+](=O)[O-])cc1[N+](=O)[O-] | active: 11.2 µM |
| CCN(CC)CC(O)COC(=O)C(O)(c1ccccc1)C1CCCCC1 (configuration not stated) | inactive |
| COc1ccc(OP(C)(=O)Nc2ccc(Br)cc2)cc1 (configuration not stated) | inactive |
| CP(=O)(Oc1ccccc1)N1CCOC1=O (configuration not stated) | inactive |
| CCc1ccc(OP(C)(=O)Nc2cccnc2)cc1 (configuration not stated) | inactive |

| SMILES | Potency |
| --- | --- |
| COc1ccccc1OP(C)(=O)Nc1c(C)n(C)n(-c2ccccc2)c1=O (configuration not stated) | inactive |
| O=C(OCCCN1CCCC1)C(O)(c1ccccc1)C1CCCCC1 (configuration not stated) | inactive |
| Nc1ccc2c(ccc3cccnc32)n1.O=[N+]([O-])c1cc([N+](=O)[O-])c(O)c([N+](=O)[O-])c1 | inactive |
| CP(=O)(OC12CC3CC(CC(C3)C1)C2)OC12CC3CC(CC(C3)C1)C2 | inactive |
| CCOC(=O)c1ccc(NP(C)(=O)Oc2ccc(Cl)cc2)cc1 (configuration not stated) | inactive |
| Cc1cc(-c2cccc3ccccc23)c(C)cn1.O=[N+]([O-])c1cc([N+](=O)[O-])c(O)c([N+](=O)[O-])c1 | inactive |
| O=[N+]([O-])c1ccc(OP2(=O)COCCO2)cc1 (configuration not stated) | inactive |
| Cc1c(C(c2ccc3c(c2)OCO3)c2c(C)n(C)n(-c3ccccc3)c2=O)c(=O)n(-c2ccccc2)n1C.O=[N+]([O-])c1cc([N+](=O)[O-])c(O)c([N+](=O)[O-])c1 | inactive |
| COc1ccc(OP(C)(=O)Nc2cccc(Br)c2)cc1 (configuration not stated) | inactive |
| COc1ccc(NP(C)(=O)Oc2ccccc2OC)cc1 (configuration not stated) | inactive |
| CN(C)CCOC(=O)C(O)(c1ccccc1)C1CCCCC1 (configuration not stated) | inactive |
| CP(=O)(Nc1ccc2c(c1)OCCO2)Oc1ccccc1 (configuration not stated) | inactive |
| Cc1ccccc1NP(C)(=O)Nc1ccccc1C | inactive |
| CP(=O)(Nc1ccc(SC(F)(F)F)cc1)Oc1ccc(F)cc1 (configuration not stated) | inactive |
| CCOP(C)(=S)SCC(=O)NC(C)(CC)C(=O)O (configuration not stated) | inactive |
| O=C(OCCN1CCN(CCOCc2ccccc2)CC1)C(O)(c1ccccc1)c1ccccc1 | inactive |
| CC(C)c1ccc(OP(C)(=O)Nc2ccc(SC(F)(F)F)cc2)cc1 (configuration not stated) | inactive |
| CP(=O)(Nc1ccccc1F)Oc1ccccc1 (configuration not stated) | inactive |
| CCN(CC)CCCOC(=O)C(O)(c1ccccc1)C1CCCCC1 (configuration not stated) | inactive |
| Cc1c([N+](=O)[O-])cc([N+](=O)[O-])c(Br)c1[N+](=O)[O-] | inactive |
| CCCCCOc1ccc(NP(C)(=O)Oc2ccc(Cl)cc2Cl)cc1 (configuration not stated) | active: 20 µM |
| CP(=O)(Nc1ccccc1)Oc1ccc(F)cc1 (configuration not stated) | inactive |

| SMILES | Potency |
| --- | --- |
| COc1ccc(OP(C)(=O)Nc2ccc(SC(F)(F)F)cc2)cc1 (configuration not stated) | inactive |
| CCOC(=O)c1ccc(NP(C)(=O)Oc2ccc(F)cc2)cc1 (configuration not stated) | inactive |
| CC1=NCCc2c1[nH]c1ccccc21.O=[N+]([O-])c1cc([N+](=O)[O-])c(O)c([N+](=O)[O-])c1 | inactive |
| CP(=O)(Nc1cccc(Br)c1)Oc1ccccc1 (configuration not stated) | inactive |
| Cc1cc(C)cc(OP(C)(=O)Nc2ccccn2)c1 (configuration not stated) | inactive |
| Cc1ccc(C)c(NP(C)(=O)Oc2ccccc2)c1 (configuration not stated) | inactive |
| COc1ccccc1OP(C)(=O)Nc1cccc(Br)c1 (configuration not stated) | inactive |
| Cc1cc(C)cc(OP(C)(=O)Nc2ccc(C)cc2C)c1 (configuration not stated) | inactive |
| CCOC(=O)c1ccc(NP(C)(=O)Oc2cc(C)cc(C)c2)cc1 (configuration not stated) | inactive |
| O=[N+]([O-])c1cc([N+](=O)[O-])c(-c2cnn(-c3ccccc3)c2)c([N+](=O)[O-])c1 | inactive |
| Cc1nc2ccc3ccccc3c2s1.O=[N+]([O-])c1cc([N+](=O)[O-])c(O)c([N+](=O)[O-])c1 | inactive |
| O=[N+]([O-])c1cc([N+](=O)[O-])c(-n2nnc3ccccc32)c([N+](=O)[O-])c1 | inactive |
| CN(Cc1cccnc1)C(=O)COc1ccc(Cl)c(Cl)c1.O=[N+]([O-])c1cc([N+](=O)[O-])c(O)c([N+](=O)[O-])c1 | inactive |
| COc1ccccc1OP(C)(=O)Nc1c(C)cccc1C (configuration not stated) | inactive |
| CN1CCCCC1COC(=O)C1(O)c2ccccc2CCc2ccccc21 (configuration not stated) | inactive |
| CP(=O)(Nc1ccc(SC(F)(F)F)cc1)Oc1ccccc1 (configuration not stated) | inactive |
| CCCOc1ccc(NP(C)(=O)Oc2ccc(Cl)cc2)cc1 (configuration not stated) | inactive |
| O=[N+]([O-])c1cc([N+](=O)[O-])c(Nc2nnnn2CCO)c([N+](=O)[O-])c1 | inactive |
| CC1=C2N=C(C=C3N=C(C(C)=C4[N-][C@@](C)([C@@H]5N=C1[C@](C)(CCC(=O)NC[C@@H](C)OP(=O)([O-])O[C@H]1[C@@H](O)[C@@H](n6cnc7cc(C)c(C)cc76)O[C@@H]1CO)[C@H]5CC(N)=O)[C@@](C)(CC(N)=O)[C@@H]4CCC(N)=O)[C@@](C)(CC(N)=O)[C@@H]3CCC(N)=O)C(C)(C)[C@@H]2CCC(N)=O.[C-]#N.[Co+3] | inactive |
| CP(=S)(Nn1cnnc1)Oc1ccccc1 (configuration not stated) | inactive |
| COc1ccccc1OP(C)(=O)Nc1ccccc1 (configuration not stated) | inactive |
| CP(=O)(Nc1ccccc1Br)Oc1ccccc1 (configuration not stated) | inactive |

| SMILES | Potency |
| --- | --- |
| CCOP(C)(=S)SCC(=O)NC(C)C(=O)O (configuration not stated) | inactive |
| CCOC(=O)c1ccc(NP(C)(=O)Oc2ccc(OC)cc2)cc1 (configuration not stated) | inactive |
| O=[N+]([O-])c1cc([N+](=O)[O-])c(O)c([N+](=O)[O-])c1.c1ccc(Oc2ccncc2)cc1 | inactive |
| CP(=O)(Nc1ccccn1)Oc1ccc(Cl)cc1 (configuration not stated) | inactive |
| Cc1cccc(C)c1OP(C)(=O)Nc1ccc(SC(F)(F)F)cc1 (configuration not stated) | inactive |
| CP(=O)(Nc1ccc(SC(F)(F)F)cc1)Oc1ccc(Cl)cc1 (configuration not stated) | inactive |
| CP(=O)(Oc1ccccc1)OC(c1ccccc1)C(F)(F)F (configuration not stated) | inactive |
| CCc1ccc(OP(C)(=O)N2CCN(c3ccc([N+](=O)[O-])cc3)CC2)cc1 (configuration not stated) | inactive |
| CP(=O)(NC(=O)Nc1ccccc1)Oc1ccccc1 (configuration not stated) | inactive |
| Cc1cc(C)cc(OP(C)(=O)Nc2ccc(SC(F)(F)F)cc2)c1 (configuration not stated) | inactive |
| CCN(CC)CCCOC(=O)C(O)(c1ccccc1)c1ccccc1 | inactive |
| CCOC(=O)c1ccc(NP(C)(=O)Oc2ccccc2)cc1 (configuration not stated) | inactive |
| COc1ccccc1OP(C)(=O)Nc1ccc(C)cc1 (configuration not stated) | inactive |
| Cc1ccc(NP(C)(=O)Oc2ccccc2)c(C)c1 (configuration not stated) | inactive |
| COc1ccccc1OP(C)(=O)Nc1cc(Cl)ccc1C (configuration not stated) | inactive |
| COc1ccc(OP(C)(=O)Nc2cccc(F)c2)cc1 (configuration not stated) | inactive |
| Cc1cc(C)cc(OP(C)(N)=O)c1 (configuration not stated) | inactive |
| O=[N+]([O-])c1cc([N+](=O)[O-])c(Nc2cccnc2)c([N+](=O)[O-])c1 | inactive |
| CC(C)(C)c1ccc(OP(C)(=O)Nc2ccc(SC(F)(F)F)cc2)cc1 (configuration not stated) | inactive |
| Cc1cccc(C)c1OP(C)(N)=O (configuration not stated) | inactive |
| O=[N+]([O-])c1ccc2c(c1)C=Nc1ccccc1O2 | inactive |

Reference: PubChem BioAssay AID588856 (National Center for Advancing Translational Sciences (NCATS), 2011)
